# Laboratory results reported in publication PMC12667295, “A surrogate barrier model for high-throughput blood-brain barrier permeability prediction: integrating LLC-PK1-MOCK/MDR1 Cells and lysosomal trapping correction” (Drug Delivery, 2025).
# Tests used:
# in vitro = conditions: pig, LLC-PK1 MOCK cell monolayer (Transwell), pH 7.4
# P-gp (human MDR1) = test: in vitro; conditions: pig, LLC-PK1, pH 7.4;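 further: 2 h incubation at 37 °C, receiver HBSS with 10 mM Hepes plus 1% BSA, LC-MS/MS of donor and receiver, recovery as receiver plus donor amount over initial donor amount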
# [1] = Bidirectional transport across LLC-PK1 MOCK monolayer (Transwell); conditions: pig, LLC-PK1 MOCK cell monolayer (Transwell), pH 7.4, Recovery after correction of intracellular accumulation data, A-B, cell lysate included, mean±SD, n=3;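 further: compound quantified by LC-MS/MS in donor and receiver wells, efflux ratio as B-A over A-B Papp, recovery relative to initial donor amount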
compound,measurement,setting,value
CCC1(c2cnc[nH]2)Cc2ccccc2C1 [Atipamezole],"recovery at 2 h, 2 µM",in vitro,117 ± 7.46%
same,"recovery at 2 h, 2 µM",P-gp (human MDR1),118 ± 11.1%
Cc1cccc([C@H](C)c2cnc[nH]2)c1C [Dexmedetomidine],"recovery at 2 h, 2 µM",in vitro,111 ± 2.72%
same,"recovery at 2 h, 2 µM",P-gp (human MDR1),112 ± 10%
Nc1nnc(-c2cccc(Cl)c2Cl)c(N)n1 [Lamotrigine],"recovery at 2 h, 2 µM",in vitro,119 ± 6.58%
CCN(CC)CCNC(=O)c1c(C)[nH]c(/C=C2\C(=O)Nc3ccc(F)cc32)c1C [Sunitinib],"recovery at 2 h, 2 µM",[1],99.5 ± 12.8%
